Data from ChEMBL document CHEMBL4321786, “Discovery of Small Molecule Renal Outer Medullary Potassium (ROMK) Channel Inhibitors: A Brief History of Medicinal Chemistry Approaches To Develop Novel Diuretic Therapeutics” (J Med Chem, 2019).

Assay: Selectivity index, ratio of IC50 for inhibition of GABA receptor (unknown origin) by radioligand displacement assay to IC50 for inhibition of rat ROMK1 expressed in HEK293 cells by Tl+ flux assay
Assay type: cell-based

## O=[N+]([O-])c1ccc2nc(COCc3nc4ccc([N+](=O)[O-])cc4[nH]3)[nH]c2c1
  Ratio IC50: 25
